Most compounds without a hit are left out; they make up all but 1.9% or so of the library.
UUG fidelity – modulators of yeast start codon fidelity, primary screen, whole organism, S. cerevisiae, single point, plate reader | AID 602363, 2012 | actives 0.13% (n = 350,000) | activity score, % at 18.7 µM | S. cerevisiae UUG-firefly luciferase reporter, luminescence/redox ratio;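 active means replicate mean at a twofold rise or more, about +100% in these data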;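 further: firefly luciferase made from a UUG start codon reports start codon fidelity; reporter light over untreated wells divided by growth signal over untreated wells; some hits fall short of that in this replicate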
PglD DTNB – PglD (C. jejuni) enzyme inhibition; purified PglD enzyme, DTNB colorimetric CoA detection; inhibition, % at 12.5 µM; 360,000 compounds, 0.098% hits; in the data active = inhibition above about 16%, passing the limit was not always enough
PDI turbidity – inhibitors of human protein disulfide isomerase; P07237; PDI insulin aggregation turbidity, A650, 90 min; inhibition, % at 10 µM; 350,000 compounds, 0.052% hits;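 active = mean inhibition across replicates of 30% or more, whatever share of single replicates reach that level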
ERp5 block – inhibitors of human ERp5; Q15084; ERp5 insulin aggregation, absorbance 650 nm, 90 min; inhibition, % at 9.99 µM; 350,000 compounds, 0.05% hits; AID 651711;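 active = mean replicate inhibition above about 25%, with every replicate also reaching it, limit read from the data, passing the limit was not always enough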
FGF22 binding – shifts melting point of recombinant human FGF22 | activity (Tm shift, normalised), % at 9.99 µM | recombinant FGF22 thermal shift, SYPRO orange fluorescence; percent of sucrose octasulfate shift, DMSO zero | 340,000 compounds, 1.5% hits | Q9HCT0 | AID 651658;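 active = mean Tm shift, scaled 0 neutral to 100 positive control, at about 1.3% or above, every replicate too, limit read from the data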
ARNT-TACC3 inh – disrupts binding between human ARNT and TACC3 | Q9Y6A5 | AlphaScreen His-ARNT PAS-B/GST-TACC3 binding, luminescence; TACC3 fragment carries E629A point mutation | inhibition, % at 9.99 µM | 390,000 compounds, 0.66% hits;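 active = mean inhibition of replicates at least 50% and at least half of replicates each reaching 50%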
Numbers stand for hits.

Results for CN1C[C@@H]2C[C@@H](c3cccn3-c3nccs3)N3CCC[C@@]23C1=O ?
PDI turbidity: inactive; ERp5 block: inactive; FGF22 binding: 43.4; ARNT-TACC3 inh: inactive

How did CC(=O)N(C)C[C@H]1Oc2cc(-c3cncnc3)ccc2S(=O)(=O)N([C@@H](C)CO)C[C@@H]1C do in these assays?
UUG fidelity: inactive; PglD DTNB: inactive; ERp5 block: inactive; FGF22 binding: inactive; ARNT-TACC3 inh: inactive

What do the screens show for `CS/C(=C/[N+](=O)[O-])Nc1cccc2c1C(C)CC2(C)C` (centres undefined)?
PDI turbidity: inactive; ERp5 block: inactive; FGF22 binding: 43.7

What do the screens show for `CS/C(=C\[N+](=O)[O-])Nc1ccc(OC(F)(F)F)cc1`?
UUG fidelity: inactive; PglD DTNB: inactive; PDI turbidity: inactive; ERp5 block: inactive; FGF22 binding: inactive; ARNT-TACC3 inh: inactive

What do the screens show for `OC[C@@H]1[C@H](c2ccc(/C=C/c3ccccc3)cc2)[C@H]2CN(CCC(F)(F)F)CCCCN12`?
UUG fidelity: inactive; PglD DTNB: inactive; ERp5 block: inactive; FGF22 binding: inactive; ARNT-TACC3 inh: inactive

How did CN(C)CCCNC(=O)C[C@@H]1CC[C@H](NS(=O)(=O)c2ccccc2)[C@@H](CO)O1 do in these assays?
UUG fidelity: inactive; PglD DTNB: inactive; ERp5 block: inactive; FGF22 binding: inactive; ARNT-TACC3 inh: inactive

Results for Oc1c(N=Nc2ccccn2)ccc2ccccc12 ?
PDI turbidity: inactive; ARNT-TACC3 inh: 63.8

Results for COc1ccc(CCNC(=O)C(NC(=O)OCc2ccccc2)C(C)C)cc1OC (centres undefined) ?
PDI turbidity: inactive; ERp5 block: inactive; FGF22 binding: inactive; ARNT-TACC3 inh: inactive

How did COc1ccc(NC(=O)CCCC(=O)O)cc1Cl do in these assays?
PDI turbidity: inactive; ERp5 block: inactive; FGF22 binding: 43.3; ARNT-TACC3 inh: inactive

Results for COc1ccc(NC(=O)[C@@H](NC(N)=O)C(C)C)cc1Cl ?
PDI turbidity: inactive; ERp5 block: inactive; FGF22 binding: 43.8; ARNT-TACC3 inh: inactive

Results for CC[C@H](C)[C@H](NC(N)=O)C(=O)Nc1ccc(OC)c(Cl)c1 ?
UUG fidelity: inactive; PglD DTNB: inactive; PDI turbidity: inactive; ERp5 block: inactive; FGF22 binding: inactive; ARNT-TACC3 inh: inactive

Results for COc1ccc(CCNC(=O)C23CCC(C)(C(=O)C2Br)C3(C)C)cc1OC (centres undefined) ?
PDI turbidity: inactive; ERp5 block: inactive; FGF22 binding: inactive; ARNT-TACC3 inh: 49.3

What do the screens show for `CC[C@H](C)[C@H](NC(N)=O)C(=O)NCCc1ccc(OC)c(OC)c1`?
PDI turbidity: inactive; ERp5 block: inactive; FGF22 binding: 43.0; ARNT-TACC3 inh: inactive

Results for O=C(C[C@H]1C[C@H]2c3cc(NC(=O)Cc4ccncc4)ccc3O[C@H]2[C@@H](CO)O1)NCc1ccccn1 ?
PglD DTNB: inactive; ERp5 block: inactive; FGF22 binding: inactive; ARNT-TACC3 inh: inactive

How did CCNC(=O)C[C@@H]1C=C[C@@H](NC(=O)C2CCC2)[C@@H](CO)O1 do in these assays?
UUG fidelity: inactive; PglD DTNB: inactive; ERp5 block: inactive; FGF22 binding: inactive; ARNT-TACC3 inh: inactive

Results for Cc1cc(C)n(C(=O)CCCn2cc([N+](=O)[O-])cn2)n1 ?
PDI turbidity: inactive; ERp5 block: inactive; FGF22 binding: 43.0; ARNT-TACC3 inh: inactive

How did O=C(NC1CCCCC1)C(c1ccccc1)n1c(=O)c(-c2cc3ccccc3[nH]2)nc2ccccc21 (centres undefined) do in these assays?
ERp5 block: inactive; FGF22 binding: 35.4

What do the screens show for `COC(=O)c1cn(NC(=O)c2cnccn2)c(=O)c2ccccc12`?
UUG fidelity: inactive; PglD DTNB: inactive; PDI turbidity: inactive; ARNT-TACC3 inh: 63.0

How did COC(=O)c1cn(NC(=O)c2ccc(OC)c(OC)c2)c(=O)c2ccccc12 do in these assays?
UUG fidelity: inactive; PglD DTNB: inactive; PDI turbidity: inactive; ARNT-TACC3 inh: inactive

Results for O=C(Nn1cc(C(=O)Nc2ccccc2F)c2ccccc2c1=O)c1cnccn1 ?
UUG fidelity: inactive; PglD DTNB: inactive; PDI turbidity: inactive; ERp5 block: inactive; FGF22 binding: inactive; ARNT-TACC3 inh: 60.4

How did CC(C)(C)C(=O)Nc1nc2c(s1)COc1ccccc1-2 do in these assays?
UUG fidelity: inactive; PglD DTNB: inactive; ERp5 block: inactive; FGF22 binding: inactive; ARNT-TACC3 inh: inactive

Results for Nc1nc2c(s1)COc1ccccc1-2 ?
UUG fidelity: inactive; PglD DTNB: inactive; PDI turbidity: inactive; ERp5 block: inactive; FGF22 binding: 42.9; ARNT-TACC3 inh: inactive

Results for O=C(NCc1cccnc1)c1c(O)c2cccc3c2n(c1=O)CCC3 ?
PDI turbidity: inactive; ERp5 block: inactive; FGF22 binding: 43.1; ARNT-TACC3 inh: inactive

Results for Cc1nc(C)c(C(=O)C2=C(O)C(=O)N(CCN(C)C)C2c2ccco2)s1 (centres undefined) ?
PDI turbidity: inactive; ERp5 block: inactive; FGF22 binding: inactive; ARNT-TACC3 inh: inactive

Results for Cc1nc(C)c(C(=O)C2=C(O)C(=O)N(CCN3CCOCC3)C2c2ccco2)s1 (centres undefined) ?
UUG fidelity: inactive; PglD DTNB: inactive; PDI turbidity: inactive; ARNT-TACC3 inh: 49.5

Results for COc1ccc(OC)c(N=Nc2c(O)c3ccccc3[nH]c2=O)c1 ?
UUG fidelity: inactive; PglD DTNB: inactive; PDI turbidity: inactive; ERp5 block: inactive; FGF22 binding: 43.3; ARNT-TACC3 inh: inactive

Results for CCN(CC)C(C(=O)NC1CCCCC1)c1ccc(C)cc1 (centres undefined) ?
PDI turbidity: inactive; ERp5 block: inactive; FGF22 binding: 43.5; ARNT-TACC3 inh: inactive

Results for COc1ccc(NC2=Nc3ccccc3N3C2=Nc2c(c(C)nn2-c2ccc(C)cc2)C3c2cccnc2)cc1 (centres undefined) ?
PDI turbidity: inactive; ARNT-TACC3 inh: inactive

What do the screens show for `COc1cccc(C2c3c(C)nn(-c4ccc([N+](=O)[O-])cc4)c3N=C3C(=O)Nc4ccccc4N32)c1` (centres undefined)?
PDI turbidity: inactive; ERp5 block: inactive; FGF22 binding: 43.3; ARNT-TACC3 inh: inactive

What do the screens show for `Cc1nn(-c2ccc([N+](=O)[O-])cc2)c2c1C(c1ccc(OC(F)F)cc1)N1C(=N2)C(=O)Nc2ccccc21` (centres undefined)?
PDI turbidity: inactive; ERp5 block: inactive; FGF22 binding: 43.3

How did COc1ccc(NC(=O)N(C)C[C@H]2OCCCC[C@H](C)Oc3ccc(NS(=O)(=O)c4ccccc4)cc3C(=O)N([C@@H](C)CO)C[C@@H]2C)cc1 do in these assays?
UUG fidelity: inactive; PglD DTNB: inactive; ERp5 block: inactive; FGF22 binding: inactive; ARNT-TACC3 inh: inactive
